This test addresses T1, Transient receptor potential cation channel subfamily M member 4 (Mus musculus) (UniProt Q7TN37).
T1 sequence (whole entry): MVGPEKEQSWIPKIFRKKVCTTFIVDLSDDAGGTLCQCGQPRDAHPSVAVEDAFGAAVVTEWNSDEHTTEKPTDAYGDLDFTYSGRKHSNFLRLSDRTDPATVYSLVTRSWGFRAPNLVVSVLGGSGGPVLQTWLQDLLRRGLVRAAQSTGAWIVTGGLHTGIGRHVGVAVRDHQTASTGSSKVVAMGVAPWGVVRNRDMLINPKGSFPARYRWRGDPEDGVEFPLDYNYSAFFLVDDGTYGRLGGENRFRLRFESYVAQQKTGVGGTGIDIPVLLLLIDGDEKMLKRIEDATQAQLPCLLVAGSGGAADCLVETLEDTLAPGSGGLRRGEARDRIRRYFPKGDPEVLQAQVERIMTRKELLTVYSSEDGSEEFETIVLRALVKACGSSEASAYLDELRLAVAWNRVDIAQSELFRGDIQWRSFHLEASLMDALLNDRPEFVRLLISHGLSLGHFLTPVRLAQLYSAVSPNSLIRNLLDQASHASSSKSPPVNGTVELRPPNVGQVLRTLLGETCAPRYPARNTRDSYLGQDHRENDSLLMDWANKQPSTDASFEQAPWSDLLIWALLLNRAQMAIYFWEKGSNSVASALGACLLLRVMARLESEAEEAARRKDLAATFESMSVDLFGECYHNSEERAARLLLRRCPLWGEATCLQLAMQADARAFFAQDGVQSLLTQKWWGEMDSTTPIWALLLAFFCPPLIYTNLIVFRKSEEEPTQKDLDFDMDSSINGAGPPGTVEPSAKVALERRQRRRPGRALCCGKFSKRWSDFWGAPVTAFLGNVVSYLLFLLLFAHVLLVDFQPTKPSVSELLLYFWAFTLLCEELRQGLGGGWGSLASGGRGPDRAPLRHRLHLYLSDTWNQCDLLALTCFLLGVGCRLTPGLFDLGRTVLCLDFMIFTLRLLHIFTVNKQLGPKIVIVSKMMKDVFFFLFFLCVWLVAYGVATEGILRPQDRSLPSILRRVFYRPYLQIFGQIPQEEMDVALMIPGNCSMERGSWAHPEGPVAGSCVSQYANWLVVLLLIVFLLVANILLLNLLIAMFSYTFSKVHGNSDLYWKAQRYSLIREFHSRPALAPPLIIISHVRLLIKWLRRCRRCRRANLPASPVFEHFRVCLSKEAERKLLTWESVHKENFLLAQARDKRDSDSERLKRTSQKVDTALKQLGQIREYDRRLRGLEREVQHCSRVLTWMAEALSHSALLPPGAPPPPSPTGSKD
Conditions: C57BL/6, dose 25.0 mg/kg, route ig, time 21-24 hrs.

The structures appear in SMILES notation. Calls of active or inactive are those of the source. The rule behind the calls is not given here.

Here are results for one compound from ChEMBL document CHEMBL6096677, “Discovery of HZS60 as a Novel Brain Penetrant NMDAR/TRPM4 Interaction Interface Inhibitor with Improved Activity and Pharmacokinetic Properties for the Treatment of Cerebral Ischemia” (J Med Chem, 2025).

For `CCN(CCN)C(C)c1c(F)ccc(C#N)c1F` (stereo unspecified), the inhibition result is “inactive”.
